Only a part is listed here, and it is no random draw. Some of these compounds have results that are not shown, active ones among them. Results filed as inconclusive are left out. Activity calls are given as the source filed them. The call rests on the fitted dose curve; in most records, active means well fitted inhibition curve with a large enough effect; inconclusive means small, poorly fitted or top-dose-only effect, or effect the other way; inactive means no such curve, though single readings can be large or run the other way.
Assay: qHTS Multiplex Assay to Identify Dual Action Probes in a Cell Model of Huntington: Aggregate Formation (GFP); further: nearly all actives have a fitted effect of over 60% in size
Details: PC12 HttQ103-GFP aggregates, Acumen cytometry, 40 h; at 46.1 µM (top of the series) unless noted
On the % scale 0 is the no-effect control and ±100 the full control effect.

| Compound | activity change, negative = inhibition |
| --- | --- |
| COc1cccc(C(=O)NCC2(N3CCCCC3)CCCCC2)c1 | inactive: -12.1% |
| CN(C)c1cccc(C(=O)NCC2(N(C)C)CCCCC2)c1 | inactive: 6.82% |
| COc1ccc(Br)c(C(=O)NCC2(N3CCCCC3)CCCCC2)c1 | inactive: 6.92% [at 9.22 µM] |
| O=C(OC1CN2CCC1CC2)C(CO)(c1ccccc1)c1ccccc1 (configuration not stated) | inactive: -7.64% |
| CCN(CC)CC(C)C(C)OC(=O)C(O)(c1ccccc1)c1ccccc1 (configuration not stated) | inactive: -20.9% [at 9.22 µM] |
| CC(C)N1C(=O)CC2(CCN(CCOC(=O)C(O)(c3ccccc3)c3ccccc3)CC2)C1=O | inactive: 2.67% |
| O=C(NCC1(N2CCCCC2)CCCCC1)c1cc([N+](=O)[O-])ccc1Cl | inactive: -30% |
| CCN1CCCC(OC(=O)C2(O)c3ccccc3C=Cc3ccccc32)C1 (configuration not stated) | inactive: -11.4% |
| C=CCN1CCN(CCOC(=O)C(O)(c2ccccc2)c2ccccc2)CC1 | inactive: -6.86% [at 9.22 µM] |
| CN1CCCC(OC(=O)C(O)(c2ccccc2)c2ccccc2)C1 (configuration not stated) | inactive: 1.75% |
| Cc1ccccc1C(=O)NCC1(N2CCCCC2)CCCCC1 | inactive: 24.6% |
| CN(C)C1CCCC1OC(=O)C(O)(c1ccccc1)c1ccccc1 (configuration not stated) | inactive: -3.58% |

— PubChem BioAssay AID1688 (National Center for Advancing Translational Sciences (NCATS), 2009)
